Measurements from patent US20240209028A1, “CNP COMPOUNDS” (priority 2022, published 2024).

Each compound was assayed against T1, human natriuretic peptide receptor 2 (hNPR2) (Homo sapiens, UniProt P20594) (assay: In vitro hNPR2 activity assay (cGMP GloSensor reporter, HEK293)). Details: potency relative to CNP22 (0065).
T1 construct: expressed in transfected cells; host or cells: HEK293 (ATCC CRL-1573), clone 35, co-transfected with pGloSensor-42F
T1 sequence (P20594 23-1047): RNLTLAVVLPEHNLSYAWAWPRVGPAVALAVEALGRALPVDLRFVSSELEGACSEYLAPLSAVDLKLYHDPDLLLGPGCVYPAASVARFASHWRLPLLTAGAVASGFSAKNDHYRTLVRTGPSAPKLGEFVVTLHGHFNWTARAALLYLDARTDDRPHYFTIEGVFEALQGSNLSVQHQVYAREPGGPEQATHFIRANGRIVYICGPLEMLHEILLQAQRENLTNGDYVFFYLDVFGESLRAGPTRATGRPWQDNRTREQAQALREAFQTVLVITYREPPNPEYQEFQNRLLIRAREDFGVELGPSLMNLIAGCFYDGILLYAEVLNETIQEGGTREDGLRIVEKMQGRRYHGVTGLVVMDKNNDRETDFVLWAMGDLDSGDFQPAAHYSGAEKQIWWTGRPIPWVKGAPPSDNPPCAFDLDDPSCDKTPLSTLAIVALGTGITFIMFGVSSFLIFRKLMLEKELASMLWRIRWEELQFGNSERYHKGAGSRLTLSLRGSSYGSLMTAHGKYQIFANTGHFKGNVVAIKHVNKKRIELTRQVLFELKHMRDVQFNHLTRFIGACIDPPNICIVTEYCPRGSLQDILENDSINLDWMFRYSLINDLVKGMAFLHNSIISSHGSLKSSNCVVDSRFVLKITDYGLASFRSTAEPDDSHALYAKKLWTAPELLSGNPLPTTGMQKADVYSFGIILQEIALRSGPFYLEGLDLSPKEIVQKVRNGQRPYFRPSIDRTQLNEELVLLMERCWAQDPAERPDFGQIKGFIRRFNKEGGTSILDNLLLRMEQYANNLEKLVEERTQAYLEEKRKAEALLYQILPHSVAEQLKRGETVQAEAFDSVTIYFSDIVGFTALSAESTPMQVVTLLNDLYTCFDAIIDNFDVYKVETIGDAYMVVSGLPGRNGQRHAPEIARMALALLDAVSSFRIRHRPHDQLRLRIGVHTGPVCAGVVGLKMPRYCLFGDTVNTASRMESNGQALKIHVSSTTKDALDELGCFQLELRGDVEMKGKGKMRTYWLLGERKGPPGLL
Type: cell-based
Method: To evaluate the in vitro activity of CNP22 (0065; Chem. 1) and CNP compounds of the invention, they were tested for their ability to induce production of cyclic guanosine monophosphate (cGMP) in reporter cells expressing the human natriuretic peptide receptor 2 (hNPR2).
Cell culture: To produce the reporter cell line, HEK293 (ATCC® CRL-1573™) cells were stably transfected with the pGloSensor-42F reporter plasmid (GloSensor cGMP reporter—luciferase, Promega) and an expression plasmid encoding the hNPR2 receptor. A single cell clone was isolated for the reporter cell line. When reporter cells are exposed to an hNPR2 activating compound, hNPR2 cause production of cGMP. […] Active GloSensor luciferase is able to convert luciferin to oxyluciferin, a process that produces bioluminescence. Upon cell lysis and supply of luciferase substrate, luciferase activity can be quantified by detection of luminescence. Therefore, addition of an hNPR2 activating compound and subsequent addition of detection reagent to reporter cells causes generation of luminescence in a dose dependent manner. […] This measure, also referred to as in vitro potency, is reported for all compounds tested. In all the in vitro activity experiments, CNP22 was used as a positive in-plate control for hNPR2 activation. To reduce inter-assay variation, we also report the potency of each compound relative to the potency of the CNP22 control on each plate.
Procedure: HEK293-hNPR2/GloSensor clone 35 cells were continuously cultured in selection medium (DMEM containing 10% FCS, 1% P/S, 200 μg/mL G418 and 100 μg/mL hygromycin). To perform the assay, cells were detached with TrypLE Express (Gibco #12604013), put through a 70 μm cell strainer, counted and seeded in 30 μL/well assay medium (DMEM without phenol red and with 1% P/S) at 10,000 cells/well in white 384-well plates (Perkin Elmer #6007680) overnight. The following day, test compounds were serial diluted in dilution medium (DMEM without phenol red containing 1% OVA (Sigma #A5505 lot 04M7001V), 0.01% Tween20 (Roche #33766700) and 1% P/S) and 10 μL/well of diluted test compounds were subsequently added to the cells. For each compound, ten different concentrations in the range 0.25 μM-10 μM were tested. After 30 min of incubation at 37° C. and 5% CO2, 40 μL/well Bright-Glo detection reagent (Promega #E2650) was added. […] To determine the in vitro potency or EC50 of each test compound, a four parameter logistic regression was done on the raw data for each test compound using the Python package SciPy optimize. The average EC50 values are listed as “hNPR2 0% HSA. [EC50 (nM)]” in Table 2. A relative potency was calculated by the following expression: EC50 (CNP22 in-plate control)/EC50 (test compound)*100, shown as “hNPR2 0% HSA. [EC50% rel CNP]” in Table 2. A minimum of two replicates was measured for each test compound.

Compared with `CCCC[C@@H]1NC(=O)[C@H](CO)NC(=O)CNC(=O)[C@H]([C@@H](C)CC)NC(=O)[C@H](CCCNC(=N)N)NC(=O)[C@H](CC(=O)O)NC(=O)[C@H](CC(C)C)NC(=O)[C@H](CCCCN)NC(=O)[C@H](CC(C)C)NC(=O)CNC(=O)[C@H](Cc2ccccc2)NC(=O)[C@@H](NC(=O)CNC(=O)[C@H](CCCCN)NC(=O)[C@H](CO)NC(=O)[C@H](CC(C)C)NC(=O)CNC(=O)[C@H](CCCCN)NC(=O)[C@H](CCCCN)NC(=O)[C@H](CC(N)=O)NC(=O)[C@H](C)NC(=O)CNC(=O)[C@H](CCCCN)NC(=O)[C@H](Cc2ccc(O)cc2)NC(=O)CC[C@H](NC(=O)CC[C@H](NC(=O)CC[C@H](NC(=O)CC[C@H](NC(=O)CC[C@H](NC(=O)CC[C@H](NC(=O)CCCCCCCCCCCCCCCCC(=O)O)C(=O)O)C(=O)O)C(=O)O)C(=O)O)C(=O)O)C(=O)O)CSSC[C@@H](C(=O)O)NC(=O)CNC(=O)[C@H](CC(C)C)NC(=O)CNC(=O)[C@H](CO)NC1=O` [compound 0262], `CCCC[C@@H]1NC(=O)[C@H](CO)NC(=O)CNC(=O)[C@H]([C@@H](C)CC)NC(=O)[C@H](CCCNC(=N)N)NC(=O)[C@H](CC(=O)O)NC(=O)[C@H](CC(C)C)NC(=O)[C@H](CCCCN)NC(=O)[C@H](CC(C)C)NC(=O)CNC(=O)[C@H](Cc2ccccc2)NC(=O)[C@@H](NC(=O)CNC(=O)[C@H](CO)NC(=O)[C@H](CO)NC(=O)[C@H](CC(C)C)NC(=O)CNC(=O)[C@H](CO)NC(=O)[C@H](CCCCN)NC(=O)[C@H](CC(N)=O)NC(=O)[C@H](C)NC(=O)CNC(=O)[C@H](CCCCN)NC(=O)[C@H](Cc2ccc(O)cc2)NC(=O)[C@H](CCCCN)NC(=O)[C@H](CCCNC(=N)N)NC(=O)[C@H](C)NC(=O)[C@H](CC(N)=O)NC(=O)CC[C@H](NC(=O)CC[C@H](NC(=O)CC[C@H](NC(=O)CC[C@H](NC(=O)CC[C@H](NC(=O)CC[C@H](NC(=O)CCCCCCCCCCCCCCCCC(=O)O)C(=O)O)C(=O)O)C(=O)O)C(=O)O)C(=O)O)C(=O)O)CSSC[C@@H](C(=O)O)NC(=O)CNC(=O)[C@H](CC(C)C)NC(=O)CNC(=O)[C@H](CO)NC1=O` [compound 0296] is higher in “hNPR2 0% HSA. [EC50% rel CNP]” value: 1.8% for the first, 3.6% for the second.

Compared with `CCCC[C@@H]1NC(=O)[C@H](CO)NC(=O)CNC(=O)[C@H]([C@@H](C)CC)NC(=O)[C@H](CCCNC(=N)N)NC(=O)[C@H](CC(=O)O)NC(=O)[C@H](CC(C)C)NC(=O)[C@H](CCCCN)NC(=O)[C@H](CC(C)C)NC(=O)CNC(=O)[C@H](Cc2ccccc2)NC(=O)[C@@H](NC(=O)CNC(=O)[C@H](CCCCN)NC(=O)[C@H](CO)NC(=O)[C@H](CC(C)C)NC(=O)CNC(=O)[C@H](CCCCN)NC(=O)[C@H](CCCCN)NC(=O)[C@H](CC(N)=O)NC(=O)[C@H](C)NC(=O)CNC(=O)CC[C@H](NC(=O)CC[C@H](NC(=O)CC[C@H](NC(=O)CC[C@H](NC(=O)CC[C@H](NC(=O)CCCCCCCCCCCCCCCCC(=O)O)C(=O)O)C(=O)O)C(=O)O)C(=O)O)C(=O)O)CSSC[C@@H](C(=O)O)NC(=O)CNC(=O)[C@H](CC(C)C)NC(=O)CNC(=O)[C@H](CO)NC1=O` [compound 0313], `CCCC[C@@H]1NC(=O)[C@H](CO)NC(=O)CNC(=O)[C@H]([C@@H](C)CC)NC(=O)[C@H](CCCNC(=N)N)NC(=O)[C@H](CC(=O)O)NC(=O)[C@H](CC(C)C)NC(=O)[C@H](CCCCN)NC(=O)[C@H](CC(C)C)NC(=O)CNC(=O)[C@H](Cc2ccccc2)NC(=O)[C@@H](NC(=O)CNC(=O)[C@H](CCCCN)NC(=O)[C@H](CO)NC(=O)[C@H](CC(C)C)NC(=O)CNC(=O)[C@H](CCCCN)NC(=O)[C@H](CCCCN)NC(=O)[C@H](CCC(N)=O)NC(=O)[C@H](C)NC(=O)CNC(=O)CC[C@H](NC(=O)CC[C@H](NC(=O)CC[C@H](NC(=O)CC[C@H](NC(=O)CC[C@H](NC(=O)CCCCCCCCCCCCCCCCC(=O)O)C(=O)O)C(=O)O)C(=O)O)C(=O)O)C(=O)O)CSSC[C@@H](C(=O)O)NC(=O)CNC(=O)[C@H](CC(C)C)NC(=O)CNC(=O)[C@H](CO)NC1=O` [compound 0334] is higher in “hNPR2 0% HSA. [EC50% rel CNP]” value: 0.7% for the first, 2.0% for the second.
